Tests used:
[1] = molecular target: GST-Ubiquitin-L40-Flag
[2] = molecular target: His-ubiquitin-K48-ubiquitin-biotin
[3] = molecular target: His-ubiquitin-K63-ubiquitin-biotin

B1: Full-length USP7 protein (protein)
chain: MNHQQQQQQQKAGEQQLSEPEDMEMEAGDTDDPPRITQNPVINGNVALSDGHNTAEEDMEDDTSWRSEATFQFTVERFSRLSESVLSPPCFVRNLPWKIMVMPRFYPDRPHQKSVGFFLQCNAESDSTSWSCHAQAVLKIINYRDDEKSFSRRISHLFFHKENDWGFSNFMAWSEVTDPEKGFIDDDKVTFEVFVQADAPHGVAWDSKKHTGYVGLKNQGATCYMNSLLQTLFFTNQLRKAVYMMPTEGDDSSKSVPLALQRVFYELQHSDKPVGTKKLTKSFGWETLDSFMQHDVQELCRVLLDNVENKMKGTCVEGTIPKLFRGKMVSYIQCKEVDYRSDRREDYYDIQLSIKGKKNIFESFVDYVAVEQLDGDNKYDAGEHGLQEAEKGVKFLTLPPVLHLQLMRFMYDPQTDQNIKINDRFEFPEQLPLDEFLQKTDPKDPANYILHAVLVHSGDNHGGHYVVYLNPKGDGKWCKFDDDVVSRCTKEEAIEHNYGGHDDDLSVRHCTNAYMLVYIRESKLSEVLQAVTDHDIPQQLVERLQEEKRIEAQKRKERQEAHLYMQVQIVAEDQFCGHQGNDMYDEEKVKYTVFKVLKNSSLAEFVQSLSQTMGFPQDQIRLWPMQARSNGTKRPAMLDNEADGNKTMIELSDNENPWTIFLETVDPELAASGATLPKFDKDHDVMLFLKMYDPKTRSLNYCGHIYTPISCKIRDLLPVMCDRAGFIQDTSLILYEEVKPNLTERIQDYDVSLDKALDELMDGDIIVFQKDDPENDNSELPTAKEYFRDLYHRVDVIFCDKTIPNDPGFVVTLSNRMNYFQVAKTVAQRLNTDPMLLQFFKSQGYRDGPGNPLRHNYEGTLRDLLQFFKPRQPKKLYYQQLKMKITDFENRRSFKCIWLNSQFREEEITLYPDKHGCVRDLLEECKKAVELGEKASGKLRLLEIVSYKIIGVHQEDELLECLSPATSRTFRIEEIPLDQVDIDKENEMLVTVAHFHKEVFGTFGIPFLLRIHQGEHFREVMKRIQSLLDIQEKEFEKFKFAIVMMGRHQYINEDEYEVNLKDFEPQPGNMSHPRPWLGLDHFNKAPKRSRYTYLEKAIKIHN
HTRF signal (Delta F %) of intact substrate after one hour at 37° C. with USP7 at varying concentrations [1]: The decrease in the signal correlates with the increase in enzyme activity i.e. the cleavage of GST-Ub652-Flag substrate.
HTRF signal (Delta F %) of intact substrate after one hour at 37° C. with USP7 at varying concentrations [2]: The decrease in the signal correlates with the increase in enzyme activity i.e. the cleavage of His-Ub-K48-Ub-biotin and His-Ub-K63-Ub-biotin.
HTRF signal (Delta F %) of intact substrate after one hour at 37° C. with USP7 at varying concentrations [3]: The decrease in the signal correlates with the increase in enzyme activity i.e. the cleavage of His-Ub-K48-Ub-biotin and His-Ub-K63-Ub-biotin.
